Source: patent US10155764B2, “Therapeutic compounds and uses thereof” (GENENTECH, INC., priority 2014, dated 2018)

Amino acid sequences for entries named in this document (tags omitted). Residues count along the entry.
UniProt Q92831, 719-832: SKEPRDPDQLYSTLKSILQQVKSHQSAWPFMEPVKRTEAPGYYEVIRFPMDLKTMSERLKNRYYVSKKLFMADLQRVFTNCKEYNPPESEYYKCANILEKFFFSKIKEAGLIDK

These compounds were tested against PCAF719-832 bromodomain (Homo sapiens (Human), UniProt Q92831) (assay: PCAF AlphaLisa binding assay). Conditions: PCAF bromodomain 225 nM, biotinylated small molecule ligand 6 nM.

| IC50 | Compound |
| --- | --- |
| 1200 nM | CN1CCCCC(Nc2nn(C)c(=O)c3ccccc23)C1 (racemic) [Example 45, 2-methyl-4-((1-methylazepan-3-yl)amino)phthalazin-1(2H)-one] |
| 820 nM | CN(C)[C@@H]1CCCC[C@H]1Nc1nn(C)c(=O)c2ccccc12 (racemic) [Example 52, 4-(((1R,2R)-2-(dimethylamino)cyclohexyl)amino)-2-methylphthalazin-1(2H)-one] |
| 2100 nM | CN(C)[C@@H]1CCC[C@H]1Nc1nn(C)c(=O)c2ccccc12 (racemic) [Example 53, 4-(((1R,2R)-2-(dimethylamino)cyclopentyl)amino)-2-methylphthalazin-1(2H)-one] |
| 57 nM | CN(C)[C@H]1CCC[C@H]1Nc1nn(C)c(=O)c2cccnc12 (single isomer, unassigned) [Example 16A] |
| 860 nM | CN(C)[C@@H]1CCC[C@@H]1Nc1nn(C)c(=O)c2cccnc12 (single isomer, unassigned) [Example 16B] |
| 69 nM | CN(C)C1CN(c2ccc(Cl)cc2)CCC1Nc1nn(C)c(=O)c2cccnc12 (single isomer, unassigned) [Example 32B, 8-((1-(4-chlorophenyl)-3-(dimethylamino)piperidin-4-yl)amino)-6-methylpyrido[2,3-d]pyridazin-5(6H)-one] |
| 170 nM | CN(C)[C@H]1CN(c2ccc(Cl)cc2)CC[C@H]1Nc1nn(C)c(=O)c2ccccc12 (single isomer, unassigned) [Example 33] |
| 40 nM | CN(C)[C@H]1CN(c2ccc(Cl)cc2)CC[C@@H]1Nc1nn(C)c(=O)c2ccccc12 (single isomer, unassigned) [Example 34] |
| 75 nM | C[C@H](Nc1nn(C)c(=O)c2ccccc12)[C@H](c1cnn(-c2ccccc2)c1)N(C)C (single isomer, unassigned) [Example 57] |
| 25 nM | C[C@H](Nc1nn(C)c(=O)c2ccccc12)[C@H](c1ccc(Oc2ccccc2)cc1)N(C)C (single isomer, unassigned) [Example 63] |
| 99 nM | CC(=O)Nc1cccc([C@@H]([C@H](C)Nc2nn(C)c(=O)c3cccnc23)N(C)C)c1 (single isomer, unassigned) [Example 72] |
| 71 nM | C[C@H](Nc1nn(C)c(=O)c2cccnc12)[C@H](c1ccc(C(=O)N2CCCC2)cc1)N(C)C (single isomer, unassigned) [Example 83] |
